This experiment addresses T1, UBE2D1 (Homo sapiens (Human), UniProt P51668).
T1 chain: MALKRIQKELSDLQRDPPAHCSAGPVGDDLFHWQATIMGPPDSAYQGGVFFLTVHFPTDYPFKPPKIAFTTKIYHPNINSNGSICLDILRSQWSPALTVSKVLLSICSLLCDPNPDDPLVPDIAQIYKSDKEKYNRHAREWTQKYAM
Description: ITC; UbcH7 cells RING1 fragment, UbcH5A cells whole RBR. (In general: ITC needs no label: the signal is the heat of the interaction.)

B1: HOIP (protein)
chain: QECAVCGWALPHNRMQALTSCECTICPDCFRQHFTIALKEKHITDMVCPACGRPDLTDDTQLLSYFSTLDIQLRESLEPDAYALFHKKLTEGVLMRD
For the molecule B1, the Kd (usually the free concentration of one partner at which half of the binding sites on the other are occupied at equilibrium, for simple one-to-one binding) was over 50 µM.

Source of the values: PMC5758712 (2018).
